# Assay results: PubChem BioAssay AID540267 (National Center for Advancing Translational Sciences (NCATS), 2011)
# The list shows a part of the results, in another mix than the full data. Active and inactive are the calls of the source. No stated cut-off is given here; in the data, active means activity change below about -80%; inconclusive means between about -30% and that limit; inactive means weaker than that.
# Assay: Small Molecules that selectively kill Giardia lamblia: qHTS;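 further: parasites exposed to compound for two days anaerobically before the ATP read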
# Details: Giardia lamblia trophozoite viability; at 7.66 µM; active compounds read low
# From the text: Giardia lamblia is a human pathogen afflicting impoverished nations, and the most common cause of outbreaks of diarrhea in the United States. Giardia has been classified by the CDC as a category B bioterrorism organism. The favored anti giardiasis drugs in the US are metronidazole or tinidazole, compounds that have undesirable side effects. Moreover, increasing resistance to drug regimes and recurrence are a concern. It is thus clear that alternative drug treatments are needed.
# In a collaboration between the University of Maryland, College Park and the NIH Chemical Genomics Center, a bioluminescence Giardia viability assay based on the trophozoites' ATP content was developed. This assay is suitable for high throughput screening, and miniaturized the assay for compound screening in 1536-well plates. The goal of the project is to screen the Molecular Libraries Small Molecule Repository (MLSMR) for compounds that selectively kill Giardia trophozoites.
# NIH Chemical Genomics Center [NCGC]
# NIH Molecular Libraries Probe Centers Network [MLPCN]
# Assay Submitter (PI): Osnat Herzberg, University of Maryland, College Park, MD.
# 1. Dispense 2 ul/well media
# 2. Dispense 23 nl/well compounds
# 3. Dispense 4 ul/well Giardia trophozoites at a concentration of 100 cells/well
# 4. Incubate 48 hrs at 37 deg C anaerobically
# 5. Dispense 4 ul/well ATPLite 1-Step Luminescence assay kit
# 6. Incubate 15-30 min at room temperature
# 7. Read luminescence signal on ViewLux plate reader
# On the % scale 0 is the no-effect control and ±100 the full control effect.
row,SMILES,activity change
1,O=[N+]([O-])c1cc([N+](=O)[O-])c(-c2cnn(-c3ccccc3)c2)c([N+](=O)[O-])c1,inactive: -29.7%
2,Cc1nc2ccc3ccccc3c2s1.O=[N+]([O-])c1cc([N+](=O)[O-])c(O)c([N+](=O)[O-])c1,inactive: 6.78%
3,O=[N+]([O-])c1cc([N+](=O)[O-])c(-n2nnc3ccccc32)c([N+](=O)[O-])c1,inactive: 20.4%
4,COc1ccccc1OP(C)(=O)Nc1c(C)cccc1C (stereo not drawn),inactive: -4.02%
5,CN1CCCCC1COC(=O)C1(O)c2ccccc2CCc2ccccc21 (stereo not drawn),inactive: 14.8%
6,CP(=O)(Nc1ccc(SC(F)(F)F)cc1)Oc1ccccc1 (stereo not drawn),inactive: -7.01%
7,CCCOc1ccc(NP(C)(=O)Oc2ccc(Cl)cc2)cc1 (stereo not drawn),inactive: -0.286%
8,O=[N+]([O-])c1cc([N+](=O)[O-])c(Nc2nnnn2CCO)c([N+](=O)[O-])c1,inactive: -17.7%
9,CC1=C2N=C(C=C3N=C(C(C)=C4[N-][C@@](C)([C@@H]5N=C1[C@](C)(CCC(=O)NC[C@@H](C)OP(=O)([O-])O[C@H]1[C@@H](O)[C@@H](n6cnc7cc(C)c(C)cc76)O[C@@H]1CO)[C@H]5CC(N)=O)[C@@](C)(CC(N)=O)[C@@H]4CCC(N)=O)[C@@](C)(CC(N)=O)[C@@H]3CCC(N)=O)C(C)(C)[C@@H]2CCC(N)=O.[C-]#N.[Co+3],inactive: 44.6%
10,CC1=NCCc2c1[nH]c1ccccc21.O=[N+]([O-])c1cc([N+](=O)[O-])c(O)c([N+](=O)[O-])c1,inactive: 7.49%
11,Cc1ccc(C)c(NP(C)(=O)Oc2ccccc2)c1 (stereo not drawn),inactive: -4.11%
12,CP(=O)(Nc1cccc(Br)c1)Oc1ccccc1 (stereo not drawn),inactive: -4.24%
13,Cc1cc(C)cc(OP(C)(=O)Nc2ccccn2)c1 (stereo not drawn),inactive: 10.5%
14,COc1ccccc1OP(C)(=O)Nc1cccc(Br)c1 (stereo not drawn),inactive: -3.52%
15,CCOC(=O)c1ccc(NP(C)(=O)Oc2cc(C)cc(C)c2)cc1 (stereo not drawn),inactive: 22.8%
16,Cc1cc(C)cc(OP(C)(=O)Nc2ccc(C)cc2C)c1 (stereo not drawn),inactive: -2.19%
17,CCN(CC)CCCOC(=O)C(O)(c1ccccc1)c1ccccc1,inactive: -11.6%
18,Cc1ccc(NP(C)(=O)Oc2ccccc2)c(C)c1 (stereo not drawn),inactive: 3.79%
19,COc1ccccc1OP(C)(=O)Nc1ccc(C)cc1 (stereo not drawn),inactive: 0.417%
20,CCOC(=O)c1ccc(NP(C)(=O)Oc2ccccc2)cc1 (stereo not drawn),inactive: -10.5%
21,Cc1cc(C)cc(OP(C)(N)=O)c1 (stereo not drawn),inactive: 6.11%

row,SMILES,activity change
1,COc1ccc(OP(C)(=O)Nc2cccc(F)c2)cc1 (stereo not drawn),inactive: -1.04%
2,COc1ccccc1OP(C)(=O)Nc1cc(Cl)ccc1C (stereo not drawn),inactive: 11.3%
3,O=[N+]([O-])c1ccc2c(c1)C=Nc1ccccc1O2,inactive: 7.65%
4,Cc1cccc(C)c1OP(C)(N)=O (stereo not drawn),inactive: -24.7%
5,CC(C)(C)c1ccc(OP(C)(=O)Nc2ccc(SC(F)(F)F)cc2)cc1 (stereo not drawn),inactive: -2.96%
6,CP(=S)(Nn1cnnc1)Oc1ccccc1 (stereo not drawn),inactive: -1.39%
7,CP(=O)(Nc1ccccc1Br)Oc1ccccc1 (stereo not drawn),inactive: -12.4%
8,COc1ccccc1OP(C)(=O)Nc1ccccc1 (stereo not drawn),inactive: 2.16%
9,CCOC(=O)c1ccc(NP(C)(=O)Oc2ccc(OC)cc2)cc1 (stereo not drawn),inactive: 22.2%
10,O=[N+]([O-])c1cc([N+](=O)[O-])c(O)c([N+](=O)[O-])c1.c1ccc(Oc2ccncc2)cc1,inactive: -12.9%
11,CCOP(C)(=S)SCC(=O)NC(C)C(=O)O (stereo not drawn),inactive: -18.7%
12,CP(=O)(Nc1ccccn1)Oc1ccc(Cl)cc1 (stereo not drawn),inactive: -27.3%
13,CP(=O)(Oc1ccccc1)OC(c1ccccc1)C(F)(F)F (stereo not drawn),inactive: 8.41%
14,Cc1cccc(C)c1OP(C)(=O)Nc1ccc(SC(F)(F)F)cc1 (stereo not drawn),inactive: 6.12%
15,CP(=O)(Nc1ccc(SC(F)(F)F)cc1)Oc1ccc(Cl)cc1 (stereo not drawn),inactive: 16.2%
16,Cc1cc(C)cc(OP(C)(=O)Nc2ccc(SC(F)(F)F)cc2)c1 (stereo not drawn),inactive: -0.138%
17,CCc1ccc(OP(C)(=O)N2CCN(c3ccc([N+](=O)[O-])cc3)CC2)cc1 (stereo not drawn),inactive: -10.7%
18,CP(=O)(NC(=O)Nc1ccccc1)Oc1ccccc1 (stereo not drawn),inactive: 25.1%
19,CC(C)(C)c1ccc(OP(C)(=O)O)cc1,inactive: 5.27%
20,COc1ccccc1OP(C)(=O)Nc1ccccc1Br (stereo not drawn),inactive: 2.24%
21,CP(=O)(Nc1ccc(Cl)cc1)Oc1ccc(F)cc1 (stereo not drawn),inactive: 2.65%

row,SMILES,activity change
1,COc1ccc(OP(C)(=O)Nc2ccc(Br)cc2)cc1 (stereo not drawn),inactive: 9.25%
2,CCN(CC)CC(O)COC(=O)C(O)(c1ccccc1)C1CCCCC1 (stereo not drawn),inactive: -0.988%
3,O=C(OCCCN1CCCC1)C(O)(c1ccccc1)C1CCCCC1 (stereo not drawn),inactive: -0.233%
4,COc1ccccc1OP(C)(=O)Nc1c(C)n(C)n(-c2ccccc2)c1=O (stereo not drawn),inactive: 12.7%
5,CCc1ccc(OP(C)(=O)Nc2cccnc2)cc1 (stereo not drawn),inactive: 0.448%
6,CP(=O)(Oc1ccccc1)N1CCOC1=O (stereo not drawn),inactive: 21.2%
7,Nc1ccc2c(ccc3cccnc32)n1.O=[N+]([O-])c1cc([N+](=O)[O-])c(O)c([N+](=O)[O-])c1,inactive: 1.29%
8,CCOC(=O)c1ccc(NP(C)(=O)Oc2ccc(Cl)cc2)cc1 (stereo not drawn),inactive: 9.79%
9,CP(=O)(OC12CC3CC(CC(C3)C1)C2)OC12CC3CC(CC(C3)C1)C2,inactive: -13.6%
10,CP(=O)(OCCOc1ccccc1)OCCOc1ccccc1,inactive: 3.77%
11,CP(=O)(Nc1ccc(Cl)cc1Cl)Oc1ccccc1 (stereo not drawn),inactive: -1.48%
12,CCCCCCCCCCCCCCCC1C[N+](C)(C)CCOP(C)(=O)O1 (stereo not drawn),inactive: -7.2%
13,Cc1cc(C)cc(OP(C)(=O)Nc2cccc(C(F)(F)F)c2)c1 (stereo not drawn),inactive: 3.46%
14,COc1ccccc1OP(C)(=O)Nc1ccc(C)c(C)c1 (stereo not drawn),inactive: 7.45%
15,COc1ccc(OP(C)(=O)Nc2ccccc2Br)cc1 (stereo not drawn),inactive: -11%
16,Cc1c(NP(C)(=O)Oc2ccc(C(C)C)cc2)c(=O)n(-c2ccccc2)n1C (stereo not drawn),inactive: 2.45%
17,COc1ccccc1OP(C)(=O)Nc1ccc(C)cc1C (stereo not drawn),inactive: 24.7%
18,CP(=O)(Nc1ccccn1)Oc1ccccc1 (stereo not drawn),inactive: -13.2%
19,CCc1ccc(OP(C)(=O)O)cc1,inactive: -14.4%
20,COc1ccccc1OP(C)(=O)Nc1ccc(Br)cc1 (stereo not drawn),inactive: -15.9%
21,COc1ccc(OP(C)(=O)Nc2ccccn2)cc1 (stereo not drawn),inactive: 1.14%

row,SMILES,activity change
1,CN(C)CCOC(=O)C(O)(c1ccccc1)C1CCCC1 (stereo not drawn),inactive: 3.85%
2,O=C(OCCN1CCN(CCOCc2ccccc2)CC1)C(O)(c1ccccc1)c1ccccc1,inactive: -12.4%
3,CP(=O)(Nc1ccccc1F)Oc1ccccc1 (stereo not drawn),inactive: 3.58%
4,CC(C)c1ccc(OP(C)(=O)Nc2ccc(SC(F)(F)F)cc2)cc1 (stereo not drawn),inactive: 1.99%
5,Cc1c([N+](=O)[O-])cc([N+](=O)[O-])c(Br)c1[N+](=O)[O-],inactive: -5.6%
6,CCN(CC)CCCOC(=O)C(O)(c1ccccc1)C1CCCCC1 (stereo not drawn),inactive: -1.71%
7,CP(=O)(Nc1ccccc1)Oc1ccc(F)cc1 (stereo not drawn),inactive: -18.5%
8,CCCCCOc1ccc(NP(C)(=O)Oc2ccc(Cl)cc2Cl)cc1 (stereo not drawn),inactive: 31.4%
9,CCOC(=O)c1ccc(NP(C)(=O)Oc2ccc(F)cc2)cc1 (stereo not drawn),inactive: -16.6%
10,COc1ccc(OP(C)(=O)Nc2ccc(SC(F)(F)F)cc2)cc1 (stereo not drawn),inactive: -4.12%
11,O=[N+]([O-])c1ccc(OP2(=O)COCCO2)cc1 (stereo not drawn),inactive: 22.4%
12,Cc1cc(-c2cccc3ccccc23)c(C)cn1.O=[N+]([O-])c1cc([N+](=O)[O-])c(O)c([N+](=O)[O-])c1,inactive: -20.1%
13,Cc1c(C(c2ccc3c(c2)OCO3)c2c(C)n(C)n(-c3ccccc3)c2=O)c(=O)n(-c2ccccc2)n1C.O=[N+]([O-])c1cc([N+](=O)[O-])c(O)c([N+](=O)[O-])c1,inactive: 7.63%
14,COc1ccc(OP(C)(=O)Nc2cccc(Br)c2)cc1 (stereo not drawn),inactive: 0.56%
15,CN(C)CCOC(=O)C(O)(c1ccccc1)C1CCCCC1 (stereo not drawn),inactive: -29.9%
16,COc1ccc(NP(C)(=O)Oc2ccccc2OC)cc1 (stereo not drawn),inactive: -8.61%
17,CP(=O)(Nc1ccc2c(c1)OCCO2)Oc1ccccc1 (stereo not drawn),inactive: 1.2%
18,Cc1ccccc1NP(C)(=O)Nc1ccccc1C,inactive: 10.2%
19,CP(=O)(Nc1ccc(SC(F)(F)F)cc1)Oc1ccc(F)cc1 (stereo not drawn),inactive: 9.01%
20,CCOP(C)(=S)SCC(=O)NC(C)(CC)C(=O)O (stereo not drawn),inactive: -0.644%
